Test results published in patent publication US20220175675A1, “ENCAPSULATING MOLECULES IN FAT GLOBULES” (The Regents of the University of California, priority 2019, published 2022).

Experiment: Water/octanol partitioning coefficient, Log P

Which logP does the source give for `O.O=c1c(O)c(-c2ccc(O)c(O)c2)oc2cc(O)cc(O)c12` [Quercetin hydrate] here?
The logP was ~2.
